This experiment concerns the target Recombinant human cathepsin S (CatS) (Homo sapiens, UniProt P25774). Put plainly: biochemical.

By UniProt entry, the sequences of proteins in these tests, tags left out. Residues count along the entry.
UniProt P25774, 115-331: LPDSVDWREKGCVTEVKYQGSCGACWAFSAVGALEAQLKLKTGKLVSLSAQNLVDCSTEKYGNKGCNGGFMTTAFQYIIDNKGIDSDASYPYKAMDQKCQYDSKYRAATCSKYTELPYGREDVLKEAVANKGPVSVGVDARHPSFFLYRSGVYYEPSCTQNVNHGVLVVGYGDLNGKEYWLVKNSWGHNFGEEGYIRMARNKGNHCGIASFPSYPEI

`Oc1ccc(N2CCN(CC(O)Cn3nc(-c4ccc(C(F)(F)F)c(SCCN5CCC(F)(F)C5)c4)c4c3CCNC4)CC2)cc1` (stereo not shown) [Example 506, 4-[4-(3-{3-[3-{[2-(3,3-Difluoropyrrolidin-1-yl)ethyl]sulfanyl}-4-(trifluoromethyl)phenyl]-4,5,6,7-tetrahydro-1H-pyrazolo[4,3-c]pyridin-1-yl}-2-hydroxypropyl)piperazin-1-yl]phenol]: the IC50 is 880 nM.
The figure for `CS(=O)(=O)N1CCc2c(c(-c3ccc(C(F)(F)F)c(SCC(=O)N4CC[C@@H](O)C4)c3)nn2CC(O)CN2CCC(C(=O)N3CCCC3)CC2)C1` (stereo partly drawn) [Example 805, (3R)-1-[({5-[1-{2-Hydroxy-3-[4-(pyrrolidin-1-ylcarbonyl)piperidin-1-yl]propyl}-5-(methylsulfonyl)-4,5,6,7-tetrahydro-1H-pyrazolo[4,3-c]pyridin-3-yl]-2-(trifluoromethyl)phenyl}sulfanyl)acetyl]pyrrolidin-3-ol] is 40 nM.
Consider `CS(=O)(=O)N1CCc2c(c(-c3ccc(C(F)(F)F)c(SCCNC4CCCC4)c3)nn2CC(O)CN2CCCC2)C1` (stereo not shown) [Example 325, 1-{3-[3-{[2-(Cyclopentylamino)ethyl]sulfanyl}-4-(trifluoromethyl)phenyl]-5-(methylsulfonyl)-4,5,6,7-tetrahydro-1H-pyrazolo[4,3-c]pyridin-1-yl}-3-pyrrolidin-1-ylpropan-2-ol], for which the IC50 was 360 nM.
To `COC(=O)C(=O)N1CCc2c(c(-c3ccc(C(F)(F)F)c(SCCN4CCOCC4)c3)nn2CC(O)CN2CCCCC2)C1` (stereo not shown) [Example 243, Methyl[1-(2-hydroxy-3-piperidin-1-ylpropyl)-3-{3-[(2-morpholin-4-ylethyl)sulfanyl]-4-(trifluoromethyl)phenyl}-1,4,6,7-tetrahydro-5H-pyrazolo[4,3-c]pyridin-5-yl](oxo)acetate] belongs 600 nM; to `CS(=O)(=O)N1CCc2c(c(-c3ccc(C(F)(F)F)c(SCCN4CCOCC4)c3)nn2CC(O)CN2CCC(O)C2)C1` (stereo not shown) [Example 356, 1-{2-Hydroxy-3-[5-(methylsulfonyl)-3-{3-[(2-morpholin-4-ylethyl)sulfanyl]-4-(trifluoromethyl)phenyl}-4,5,6,7-tetrahydro-1H-pyrazolo[4,3-c]pyridin-1-yl]propyl}pyrrolidin-3-ol], 1140 nM; to `CC(C)(O)C1CCN(CCSc2cc(-c3nn(C[C@@H](O)CN4CCCCC4)c4c3CN(S(C)(=O)=O)CC4)ccc2C(F)(F)F)CC1` [Example 602, (2S)-1-{3-[3-({2-[4-(1-Hydroxy-1-methylethyl)piperidin-1-yl]ethyl}sulfanyl)-4-(trifluoromethyl)phenyl]-5-(methylsulfonyl)-4,5,6,7-tetrahydro-1H-pyrazolo[4,3-c]pyridin-1-yl}-3-piperidin-1-ylpropan-2-ol], 900 nM.
To `CS(=O)(=O)N1CCc2c(c(-c3ccc(C(F)(F)F)c(SCCN4CCC(O)(c5ccccn5)CC4)c3)nn2C[C@@H](O)CN2CCCCC2)C1` [Example 222, 1-(2-{[5-{1-[(2S)-2-Hydroxy-3-piperidin-1-ylpropyl]-5-(methylsulfonyl)-4,5,6,7-tetrahydro-1H-pyrazolo[4,3-c]pyridin-3-yl}-2-(trifluoromethyl)phenyl]sulfanyl}ethyl)-4-pyridin-2-ylpiperidin-4-ol] belongs 960 nM; to `OC(CN1CCC(Oc2ncccn2)CC1)Cn1nc(-c2ccc(C(F)(F)F)c(SCCN3CCC(F)(F)C3)c2)c2c1CCNC2` (stereo not shown) [Example 519, 1-{3-[3-{[2-(3,3-Difluoropyrrolidin-1-yl)ethyl]sulfanyl}-4-(trifluoromethyl)phenyl]-4,5,6,7-tetrahydro-1H-pyrazolo[4,3-c]pyridin-1-yl}-3-[4-(pyrimidin-2-yloxy)piperidin-1-yl]propan-2-ol], 800 nM; to `OC(CN1CCOCC1)Cn1nc(-c2ccc(C(F)(F)F)c(SCCN3CCCCC3)c2)c2c1CCNC2` (stereo not shown) [Example 292, 1-Morpholin-4-yl-3-(3-{3-[(2-piperidin-1-ylethyl)sulfanyl]-4-(trifluoromethyl)phenyl}-4,5,6,7-tetrahydro-1H-pyrazolo[4,3-c]pyridin-1-yl)propan-2-ol], greater than 20000 nM.
To `O=C(CO)NC1CCN(CC(O)Cn2nc(-c3ccc(C(F)(F)F)c(SCCN4CCCCC4)c3)c3c2CCNC3)CC1` (stereo not shown) [Example 333, 2-Hydroxy-N-{1-[2-hydroxy-3-(3-{3-[(2-piperidin-1-ylethyl)sulfanyl]-4-(trifluoromethyl)phenyl}-4,5,6,7-tetrahydro-1H-pyrazolo[4,3-c]pyridin-1-yl)propyl]piperidin-4-yl}acetamide] belongs 3110 nM; to `CS(=O)(=O)N1CCc2c(c(-c3ccc(C(F)(F)F)c(SCC(=O)N4CCOCC4)c3)nn2CCCN2CCC(N3CCCC3=O)CC2)C1` [Example 94, 1-[1-(3-{5-Methanesulfonyl-3-[3-(2-morpholin-4-yl-2-oxo-ethylsulfanyl)-4-trifluoromethyl-phenyl]-4,5,6,7-tetrahydro-pyrazolo[4,3-c]pyridin-1-yl}-propyl)-piperidin-4-yl]-pyrrolidin-2-one], 70 nM.
`CS(=O)(=O)N1CCc2c(c(-c3ccc(C(F)(F)F)c(SCCN4CCOCC4)c3)nn2CC(O)CN2CCC(c3n[nH]c(=O)[nH]3)CC2)C1` (stereo not shown) [Example 683, 5-(1-{2-Hydroxy-3-[5-(methylsulfonyl)-3-{3-[(2-morpholin-4-ylethyl)sulfanyl]-4-(trifluoromethyl)phenyl}-4,5,6,7-tetrahydro-1H-pyrazolo[4,3-c]pyridin-1-yl]propyl}piperidin-4-yl)-2,4-dihydro-3H-1,2,4-triazol-3-one]: the IC50 amounted to 270 nM.
For the molecule `CC(C)(C)OC(=O)N1CCC(CC(=O)N2CCc3c(c(-c4ccc(C(F)(F)F)c(SCCN5CCOCC5)c4)nn3CC(O)CN3CCCCC3)C2)CC1` (stereo not shown) [Example 869, 1,1-Dimethylethyl 4-{2-[1-(2-hydroxy-3-piperidin-1-ylpropyl)-3-{3-[(2-morpholin-4-ylethyl)sulfanyl]-4-(trifluoromethyl)phenyl}-1,4,6,7-tetrahydro-5H-pyrazolo[4,3-c]pyridin-5-yl]-2-oxoethyl}piperidine-1-carboxylate], the IC50 was 1870 nM.
The figure for `O=C(CO)NC1CCN(CC(O)Cn2nc(-c3ccc(C(F)(F)F)c(SCC(=O)N4CCCC4)c3)c3c2CCNC3)CC1` (stereo not shown) [Example 332, 2-Hydroxy-N-{1-[2-hydroxy-3-(3-{3-[(2-oxo-2-pyrrolidin-1-ylethyl)sulfanyl]-4-(trifluoromethyl)phenyl}-4,5,6,7-tetrahydro-1H-pyrazolo[4,3-c]pyridin-1-yl)propyl]piperidin-4-yl}acetamide] is 810 nM; for `CN(C)c1ccc(C(=O)NCCSc2cc(-c3nn(CC(O)CN4CCC(N5CCCC5=O)CC4)c4c3CN(S(C)(=O)=O)CC4)ccc2C(F)(F)F)cc1` (stereo not shown) [Example 120, 4-Dimethylamino-N-{2-[5-(1-{2-hydroxy-3-[4-(2-oxo-pyrrolidin-1-yl)-piperidin-1-yl]-propyl}-5-methanesulfonyl-4,5,6,7-tetrahydro-1H-pyrazolo[4,3-c]pyridin-3-yl)-2-trifluoromethyl-phenylsulfanyl]-ethyl}-benzamide] it is 530 nM; for `CS(=O)(=O)N1CCc2c(c(-c3ccc(C(F)(F)F)c(SCCN4CCC5CCCCC5C4)c3)nn2C[C@@H](O)CN2CCCCC2)C1` (stereo partly drawn) [Example 591, (2S)-1-{5-(Methylsulfonyl)-3-[3-{[2-(octahydroisoquinolin-2(1H)-yl)ethyl]sulfanyl}-4-(trifluoromethyl)phenyl]-4,5,6,7-tetrahydro-1H-pyrazolo[4,3-c]pyridin-1-yl}-3-piperidin-1-ylpropan-2-ol] it is 200 nM.
The figure for `CC1CCN(CC(O)Cn2nc(-c3ccc(C(F)(F)F)c(SCCN4CCCC4)c3)c3c2CCN(S(C)(=O)=O)C3)CC1` (stereo not shown) [Example 345, 1-(4-Methylpiperidin-1-yl)-3-[5-(methylsulfonyl)-3-{3-[(2-pyrrolidin-1-ylethyl)sulfanyl]-4-(trifluoromethyl)phenyl}-4,5,6,7-tetrahydro-1H-pyrazolo[4,3-c]pyridin-1-yl]propan-2-ol] is 260 nM; for `N#Cc1ccccc1N1CCN(CC(O)Cn2nc(-c3ccc(C(F)(F)F)c(SCCN4CCC(F)CC4)c3)c3c2CCNC3)CC1` (stereo not shown) [Example 537, 2-[4-(3-{3-[3-{[2-(4-Fluoropiperidin-1-yl)ethyl]sulfanyl}-4-(trifluoromethyl)phenyl]-4,5,6,7-tetrahydro-1H-pyrazolo[4,3-c]pyridin-1-yl}-2-hydroxypropyl)piperazin-1-yl]benzonitrile] it is 150 nM; for `O[C@@H](CN1CCC(c2ccccn2)CC1)Cn1nc(-c2ccc(C(F)(F)F)c(SCCN3CCC(F)CC3)c2)c2c1CCNC2` [Example 233, (2S)-1-{3-[3-{[2-(4-Fluoropiperidin-1-yl)ethyl]sulfanyl}-4-(trifluoromethyl)phenyl]-4,5,6,7-tetrahydro-1H-pyrazolo[4,3-c]pyridin-1-yl}-3-(4-pyridin-2-ylpiperidin-1-yl)propan-2-ol] it is 170 nM.
To `CS(=O)(=O)N1CCc2c(c(-c3ccc(C(F)(F)F)c(SCCN4CCC[C@H]4C(F)(F)F)c3)nn2CCCN2CCC(N3CCCC3=O)CC2)C1` [Example 20, (S)-1-{1-[3-(5-Methanesulfonyl-3-{4-trifluoromethyl-3-[2-(2-trifluoromethyl-pyrrolidin-1-yl)-ethylsulfanyl]-phenyl}-4,5,6,7-tetrahydro-pyrazolo[4,3-c]pyridin-1-yl)-propyl]-piperidin-4-yl}-pyrrolidin-2-one] belongs 210 nM; to `COc1ccccc1C1CCN(CC(O)Cn2nc(-c3ccc(C(F)(F)F)c(SCCN4CCC(O)CC4)c3)c3c2CCN(S(C)(=O)=O)C3)CC1` (stereo not shown) [Example 834, 1-[2-({5-[1-(2-Hydroxy-3-{4-[2-(methyloxy)phenyl]piperidin-1-yl}propyl)-5-(methylsulfonyl)-4,5,6,7-tetrahydro-1H-pyrazolo[4,3-c]pyridin-3-yl]-2-(trifluoromethyl)phenyl}sulfanyl)ethyl]piperidin-4-ol], 20 nM; to `CS(=O)(=O)N1CCc2c(c(-c3ccc(C(F)(F)F)c(SCCN4CCCC(CO)C4)c3)nn2CC(O)CN2CCC(N3CCCC3=O)CC2)C1` (stereo not shown) [Example 810, 1-[1-(2-Hydroxy-3-{3-[3-({2-[3-(hydroxymethyl)piperidin-1-yl]ethyl}sulfanyl)-4-(trifluoromethyl)phenyl]-5-(methylsulfonyl)-4,5,6,7-tetrahydro-1H-pyrazolo[4,3-c]pyridin-1-yl}propyl)piperidin-4-yl]pyrrolidin-2-one], 70 nM.

By IC50 is commonly meant the concentration at which inhibition is half-maximal.

The values above are taken from US20090099157A1, “TETRAHYDRO-PYRAZOLO-PYRIDINE THIOETHER MODULATORS OF CATHEPSIN S” (priority 2007, published 2009).
